Amino acid sequences for entries named in this document (tags omitted). A change or cut given only in a name is not applied to a line headed by its entry.
UniProt P50613: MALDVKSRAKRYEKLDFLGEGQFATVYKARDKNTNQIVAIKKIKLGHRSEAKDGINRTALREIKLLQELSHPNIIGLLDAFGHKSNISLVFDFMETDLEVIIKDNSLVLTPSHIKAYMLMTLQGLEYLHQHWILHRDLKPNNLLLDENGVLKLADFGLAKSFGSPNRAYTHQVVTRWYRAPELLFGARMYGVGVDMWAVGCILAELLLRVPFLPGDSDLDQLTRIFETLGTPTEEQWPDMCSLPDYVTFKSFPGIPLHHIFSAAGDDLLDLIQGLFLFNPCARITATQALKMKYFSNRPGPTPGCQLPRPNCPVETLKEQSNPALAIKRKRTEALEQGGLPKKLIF

According to patent US20190292167A1, “HETEROAROMATIC COMPOUNDS USEFUL FOR THE TREATMENT OF PROLIFERATIVE DISEASES” (Syros Pharmaceuticals, Inc., priority 2013, published 2019):

Molecular target: CDK7/Cyclin H/MAT1 trimeric complex (Homo sapiens, UniProt P50613)
Experiment: Caliper/LabChip EZ Reader CDK7 inhibition assay

IC50: 100 to 1000 nM
Compound: Cc1cc(NC(=O)/C=C/CN(C)C)ccc1C(=O)N1CCC(Nc2ncc(Cl)c(-c3c[nH]c4ccccc34)n2)CC1 [Compound 114, (E)-N-(4-(4-(5-chloro-4-(1H-indol-3-yl)pyrimidin-2-ylamino)piperidine-1-carbonyl)-3-methylphenyl)-4-(dimethylamino)but-2-enamide]
